Reference: patent publication US12415803B2, “Fused imidazopyridines as reversible inhibitors of Brutons Tyrosine Kinase (BTK)” (Merck Patent GmbH, priority 2018, dated 2025)

The chains behind the UniProt entries cited, without tags or fusion partners. Where a name states a change or a piece, a line headed by the entry shows the natural chain unless it says otherwise.
UniProt Q06187: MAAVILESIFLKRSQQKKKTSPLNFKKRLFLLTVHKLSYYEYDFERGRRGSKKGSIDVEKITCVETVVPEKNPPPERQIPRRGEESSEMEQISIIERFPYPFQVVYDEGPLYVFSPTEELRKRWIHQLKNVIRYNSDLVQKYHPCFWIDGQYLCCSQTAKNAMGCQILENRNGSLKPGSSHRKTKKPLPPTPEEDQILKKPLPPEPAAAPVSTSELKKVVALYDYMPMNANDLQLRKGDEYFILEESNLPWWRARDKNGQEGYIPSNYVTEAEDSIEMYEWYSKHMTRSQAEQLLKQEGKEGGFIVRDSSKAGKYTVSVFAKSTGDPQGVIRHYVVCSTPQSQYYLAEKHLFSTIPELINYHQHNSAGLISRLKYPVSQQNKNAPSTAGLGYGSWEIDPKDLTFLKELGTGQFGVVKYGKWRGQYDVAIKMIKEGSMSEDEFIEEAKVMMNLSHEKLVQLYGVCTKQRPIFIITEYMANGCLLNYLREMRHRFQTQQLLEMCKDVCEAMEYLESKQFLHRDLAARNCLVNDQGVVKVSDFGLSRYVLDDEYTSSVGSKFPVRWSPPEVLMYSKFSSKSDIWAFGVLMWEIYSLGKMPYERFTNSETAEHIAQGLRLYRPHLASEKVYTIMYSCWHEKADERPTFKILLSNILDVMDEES

Key:
[1] = biological target: full-length human BTK (Homo sapiens (Human), UniProt Q06187); assay: BTK IC50 Enzyme Assay (microfluidic off-chip mobility shift kinase assay); type: biochemical;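 further: Read-out separates phosphorylated peptide product from substrate by their charge-to-mass difference, with IC50 fitted from log inhibitor concentration against percent enzyme activity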
[2] = biological target: T1, Btk (Homo sapiens (Human), UniProt Q06187); assay: Btk PBMC IC50 Cell Assay (anti-IgM-induced CD69 expression on B cells); type: cell-based;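 further: freshly isolated human PBMCs, IC50 from concentration-response of the share of CD19+ cells expressing CD69 after anti-IgM BCR stimulation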
[3] = biological target: T1, Btk; assay: Time Dependent Human Whole Blood IC50 Assay; type: cell-based; conditions: read-out: Assay C (IC50)

For “5-tert-butyl-N-(2-{2-[3,5-dimethyl-1-(propan-2-yl)-1H-pyrazol-4-yl]-3H-imidazo[4,5-b]pyridin-7-yl}-6,7,8,9-tetrahydro-5H-benzo[7]annulen-5-yl)-1,3,4-oxadiazole-2-carboxamide [Compound 86]”, the pIC50 [1] was over 9.00, the pIC50 [2] was 8.00 to 9.00 and the pIC50 [3] was 7.00 to 8.00.

pIC50: −log10 of the molar value.
